Test results as given in ChEMBL document CHEMBL1147557, “Glycosyltransferase activity can be selectively modulated by chemical modifications of acceptor substrates” (Bioorg Med Chem Lett, 2004).

System: Alpha-(1,3)-fucosyltransferase 6 (Homo sapiens)
Assay: Kinetic parameter of […] by fucosyltransferase 6 alpha 1,3

## CO[C@@H]1O[C@@H](CO)[C@@H](O[C@@H]2O[C@@H](CO)[C@H](O)[C@H](O)[C@@H]2O)[C@H](O)[C@@H]1NC(C)=O
  Vmax / Km: 2.8
